Experimental data taken from patent publication US8592455B2 (priority 2008, dated 2013).

Target: Pim3 kinase (Homo sapiens (Human), UniProt Q86V86)
Settings: read-out: Pim3 IC50

Compound | IC50 [nM]
Nc1ccc(-c2c(F)cccc2F)nc1C(=O)Nc1cnccc1C1=CC(N)CCC1 (centres unmarked) [Example 107, 3-amino-N-(4-(3-aminocyclohex-1-enyl)pyridin-3-yl)-6-(2,6-difluorophenyl)picolinamide] | 6
Nc1cc(F)c(-c2c(F)cccc2F)nc1C(=O)Nc1cnccc1[C@@H]1CC[C@H](O)[C@H](N)C1 (stereo in doubt) [Example 131, 3-amino-N-(4-(3-amino-4-hydroxycyclohexyl)pyridin-3-yl)-6-(2,6-difluorophenyl)-5-fluoropicolinamide] | 6
C[C@H]1C[C@@H](c2ccncc2NC(=O)c2nc(-c3c(F)cccc3F)c(F)cc2N)C[C@@H](N)[C@@H]1O (stereo in doubt) [Example 130, 3-amino-N-(4-(3-amino-4-hydroxy-5-methylcyclohexyl)pyridin-3-yl)-6-(2,6-difluorophenyl)-5-fluoropicolinamide] | 8
C[C@@H]1C[C@H](N)C[C@H](c2ccncc2NC(=O)c2ccc(F)c([C@H]3CC[C@@H](O)CC3)n2)C1 [Example 54, N-(4-((1R,3S,5S)-3-amino-5-methylcyclohexyl)pyridin-3-yl)-5-fluoro-6-((1s,4s)-4-hydroxycyclohexyl)picolinamide] | 24
C[C@H]1C[C@@H](c2ccncc2NC(=O)c2nc(-c3c(F)cccc3F)c(F)cc2N)C[C@@H](N)[C@H]1O (stereo in doubt) [Example 132, 3-amino-N-(4-(3-amino-4-hydroxy-5-methylcyclohexyl)pyridin-3-yl)-6-(2,6-difluorophenyl)-5-fluoropicolinamide] | 6
